Binding of CDR-mutated scFvs to a peptide of the spike HR2 region

Values reported by Engelhart et al. 2022, doi:10.1038/s41597-022-01779-4 (FLAb copy).

Antigen: PDVDLGDISGINAS, a 14-residue peptide of the SARS-CoV-2 spike HR2 region.

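AAYL52 was designed without a model: most single CDR substitutions and a random sample of double and triple ones. Affinity was read by AlphaSeq, a pooled yeast mating assay with surface-displayed partners. After mating in shaken culture at 30 °C for 16 h, diploids were selected and their barcode pairs sequenced. Read counts were normalised to the haploid input and turned into Kd by a linear fit to BCL2-family pairs of known affinity, for each replicate. There are three technical replicates.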

The variants keep the heavy chain, the linker and the frameworks of Ab-95 (scFv order VH, a 15-residue (Gly4Ser)3 linker, VL).
VH: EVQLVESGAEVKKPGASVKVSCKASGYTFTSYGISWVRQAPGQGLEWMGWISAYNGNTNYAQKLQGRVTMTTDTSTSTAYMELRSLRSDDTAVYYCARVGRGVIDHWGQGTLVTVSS
VL: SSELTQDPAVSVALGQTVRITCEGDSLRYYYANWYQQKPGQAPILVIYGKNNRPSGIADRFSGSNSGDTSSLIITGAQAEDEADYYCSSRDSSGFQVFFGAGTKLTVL

The whole VL of each variant is written out. This list gathers variants with a substitution at Y29 (VL, numbered from residue 1). Values are apparent Kd, the geometric mean of the replicates that gave a signal; lower means stronger binding. Where no diploid with the target was found in any replicate, the entry reads "no signal": below detection, most likely a poor binder, though not proof of it.

With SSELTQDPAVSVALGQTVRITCEGDSLTGYYANWYQQKPGQAPILVIYGKNNRASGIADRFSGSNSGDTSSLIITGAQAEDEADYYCSSRDSSGFQVFFGAGTKLTVL the result was 30 nM (3 of 3 replicates; controls 4 of 9). The variant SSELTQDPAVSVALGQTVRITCEGDYLRSYYANWYQQKPGQAPILVIYGGNNRPSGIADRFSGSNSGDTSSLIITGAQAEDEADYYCSSRDSSGFQVFFGAGTKLTVL gave 860 nM (3 of 3 replicates; controls 3 of 9). For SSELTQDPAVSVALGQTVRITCEKDSLRHYYANWYQQKPGQAPILVIYGKNLRPSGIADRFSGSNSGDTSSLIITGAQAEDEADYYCSSRDSSGFQVFFGAGTKLTVL, the assay gave 6.0 µM (3 of 3 replicates; controls 0 of 9). The variant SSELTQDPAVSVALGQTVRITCEGDSLRWYYANWYQQKPGQAPILVIYGKNNRPSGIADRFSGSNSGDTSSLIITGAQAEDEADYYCSSRDSSGFTVFFGAGTKLTVL gave 2.0 µM (1 of 3 replicates; controls 0 of 9). The variant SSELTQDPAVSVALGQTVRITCEGDSLRFYYANWYQQKPGQAPILVIYGKNNRPSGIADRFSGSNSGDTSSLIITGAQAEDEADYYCSSRDSSGFQFKFGAGTKLTVL gave no signal (0 of 3 replicates; controls 0 of 9). The variant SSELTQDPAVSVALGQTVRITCEGDSLRAYYANWYQQKPGQAPILVIYLKNNRPSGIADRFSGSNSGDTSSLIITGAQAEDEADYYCSSRGSSGFQVFFGAGTKLTVL gave 19 µM (1 of 3 replicates; controls 0 of 9). For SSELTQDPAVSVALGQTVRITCEGDSLRHYYANWYQQKPGQAPILVIYGKNNRESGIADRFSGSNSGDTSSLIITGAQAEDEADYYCSSRDSSGFQVWFGAGTKLTVL, the assay gave 1.5 µM (3 of 3 replicates; controls 1 of 9). For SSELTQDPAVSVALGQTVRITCEGDSLRDYYANWYQQKPGQAPILVIYGKNNRPSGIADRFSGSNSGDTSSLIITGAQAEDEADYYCSSRDSEGFQVFFGAGTKLTVL, the assay gave 320 nM (3 of 3 replicates; controls 4 of 9). The variant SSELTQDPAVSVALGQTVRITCEGDSLRGYYANWYQQKPGQAPILVIYGKNNRPSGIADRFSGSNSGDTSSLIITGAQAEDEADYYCSSRDISGFQVLFGAGTKLTVL showed 23 nM (3 of 3 replicates; controls 3 of 9).

The variant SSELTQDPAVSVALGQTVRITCEGDSLRPYYANWYQQKPGQAPILVIYGRNNRPSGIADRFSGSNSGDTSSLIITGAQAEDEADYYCSSRDSSGFQQFFGAGTKLTVL gave 530 nM (1 of 3 replicates; controls 3 of 9). For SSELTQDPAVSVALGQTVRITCEGDSLRWHYANWYQQKPGQAPILVIYGKNNRPSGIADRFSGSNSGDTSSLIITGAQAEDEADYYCSSRKSSGFQVFFGAGTKLTVL, the assay gave 23 µM (2 of 3 replicates; controls 4 of 9). The variant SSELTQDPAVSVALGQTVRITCEGDMLRFYYANWYQQKPGQAPILVIYGKNNRPSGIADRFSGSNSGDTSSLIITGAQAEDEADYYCSSRDSSGFQVFFGAGTKLTVL showed 2.9 µM (2 of 3 replicates; controls 2 of 9). The variant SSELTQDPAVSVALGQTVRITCEGDSLRQYYANWYQQKPGQAPILVIYGKNNRPSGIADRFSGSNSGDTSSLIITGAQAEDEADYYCSSRDTSGFMVFFGAGTKLTVL gave 1.0 µM (3 of 3 replicates; controls 2 of 9). With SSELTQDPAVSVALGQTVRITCEGDQLRWYYANWYQQKPGQAPILVIYGKNNRPSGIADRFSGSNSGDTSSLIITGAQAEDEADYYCSSRDSRGFQVFFGAGTKLTVL the result was 10 µM (1 of 3 replicates; controls 5 of 9). The variant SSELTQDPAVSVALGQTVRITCEGDSLRIYYANWYQQKPGQAPILVIYTKNNRPSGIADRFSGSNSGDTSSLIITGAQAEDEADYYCSSRDSSGFQVKFGAGTKLTVL gave no signal (0 of 3 replicates; controls 2 of 9). The variant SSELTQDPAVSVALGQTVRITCEGDSLRNYYANWYQQKPGQAPILVIYGKNNRPVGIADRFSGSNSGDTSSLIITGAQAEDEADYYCSSRDSSGFQYFFGAGTKLTVL showed 26 µM (1 of 3 replicates; controls 1 of 9). The variant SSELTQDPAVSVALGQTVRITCEGDSLRVYYANWYQQKPGQAPILVIYGKNNRPSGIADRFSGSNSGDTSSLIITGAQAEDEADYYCSSRDSSGFQVFFGAGTKLTVL showed 520 nM (3 of 3 replicates; controls 3 of 9). The variant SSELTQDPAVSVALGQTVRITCEGDSLRTYYANWYQQKPGQAPILVIYGKNNRPSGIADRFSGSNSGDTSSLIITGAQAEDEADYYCSSRDSSGWVVFFGAGTKLTVL gave 360 nM (3 of 3 replicates; controls 4 of 9).

The variant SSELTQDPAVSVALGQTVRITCEGDALREYYANWYQQKPGQAPILVIYGKNKRPSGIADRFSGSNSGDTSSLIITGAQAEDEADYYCSSRDSSGFQVFFGAGTKLTVL gave 880 nM (3 of 3 replicates; controls 3 of 9).

Top 2 of the variants detected in all replicates, tightest first:

VL	Kd	replicates with signal	empty controls
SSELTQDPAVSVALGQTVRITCEGDSLRGYYANWYQQKPGQAPILVIYGKNNRPSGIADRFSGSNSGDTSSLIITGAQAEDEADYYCSSRDISGFQVLFGAGTKLTVL	23 nM	3 of 3	3 of 9
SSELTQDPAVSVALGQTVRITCEGDSLTGYYANWYQQKPGQAPILVIYGKNNRASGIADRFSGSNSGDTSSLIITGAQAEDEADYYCSSRDSSGFQVFFGAGTKLTVL	30 nM	3 of 3	4 of 9

Parent in this assay: reference entry 200 nM, copy in this library 180 nM. Empty control strains, which show no peptide, gave a signal in 28% of pairings with library AAYL52; the median was 8.2 µM and 95% of these signals were weaker than 800 nM. No background was subtracted. For each scFv, signals with the empty controls are counted beside the result.